## Measured affinities in a library of Ab-91 heavy chain variants

Target peptide (SARS-CoV-2 spike, HR2 region): PDVDLGDISGINAS

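Phage display of a naive human antibody library on the peptide gave the parent. The library (AAYL51) carries one to three amino acid substitutions per variant, with no insertions or deletions. The scFvs were displayed on barcoded MATa yeast, the peptide on MATalpha yeast. Mating (16 h, 30 °C) was followed by selection of diploids and sequencing of their barcodes. Each replicate has its own calibration line, from reference interactions of the BCL2 family. Each pool was mated in three replicate cultures.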

The variants keep the light chain, the linker and the frameworks of Ab-91 (scFv order VL, the linker GGGGSGGGGSGGGGS, VH).
VL: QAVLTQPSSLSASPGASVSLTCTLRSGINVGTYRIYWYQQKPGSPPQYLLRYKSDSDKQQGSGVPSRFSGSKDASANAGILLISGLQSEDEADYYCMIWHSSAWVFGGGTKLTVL
VH: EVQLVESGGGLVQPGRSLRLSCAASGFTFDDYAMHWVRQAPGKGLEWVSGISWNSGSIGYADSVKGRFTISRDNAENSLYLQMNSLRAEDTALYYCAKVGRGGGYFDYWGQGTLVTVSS

Each variant is given by its three heavy chain CDRs, as the data file delimits them; those of the parent are GFTFDDYAMH, GISWNSGSIGYADSVK, VGRGGGYFDY.
Every variant below is changed at H35 of the VH (sequential numbering).
Values are apparent Kd, the geometric mean of the replicates that gave a signal; lower means stronger binding.
An entry "nd" has no value in the source: the pair was not observed among the diploids in any replicate. This suggests poor binding but is not conclusive.

The variant GFTFDKYAMK | GISWNMGSIGYADSVK | VGRGGGYFDY gave 5.1 µM (1 of 3 replicates). The variant GFTFDDYAED | GISWNSGSTGYADSVK | VGRGGGYFDY gave 70 µM (3 of 3 replicates). With GFTFFDYAMA | GPSWNSGSIGYADSVK | VGRGGGYFDY the result was nd (0 of 3 replicates). The variant GFTFDDYAMS | GISWNSGSIDYADSVK | VGRGDGYFDY gave 14 µM (2 of 3 replicates). The variant GFTFDDYAMM | GISWNSGSIGEADSVK | VGRNGGYFDY gave 5.4 µM (1 of 3 replicates). The variant GFTFDDYAMQ | GISWNSGSIGYADSVK | VDRGGGRFDY showed 240 µM (2 of 3 replicates). The variant GFTFDDYAMC | GISAPSGSIGYADSVK | VGRGGGYFDY gave 47 µM (1 of 3 replicates). The variant GFTFDDYAMN | GISWNSGSIGSADSVK | VGRGGGHFDY showed nd (0 of 3 replicates).

For GFTFDDYAMM | GISWNSGSIGYIDSVK | VLRGGGYFDY, the assay gave 430 µM (2 of 3 replicates). The variant GFTFDKYAMG | GISWNSGSNGYADSVK | VGRGGGYFDY gave nd (0 of 3 replicates). With GFTFDDYAMM | GISWNSGSIGYMDSVK | VGRGGGGFDY the result was nd (0 of 3 replicates). The variant GFTFDDYAMP | GISWNSGSIGYADSVK | VGRGHGYFDY showed nd (0 of 3 replicates). For GFTFDDYAME | GISWNMGSIGNADSVK | VGRGGGYFDY, the assay gave 9.2 µM (2 of 3 replicates). The variant GNTFDDYAMR | GISWNSGSIGYGDSVK | VGRGGGYFDY gave 62 µM (3 of 3 replicates). With GFTFDDYAMC | GISWNMGSIGYADSVK | VGPGGGYFDY the result was nd (0 of 3 replicates). The variant GFTFDDYAML | GVSWNSGSIGYADSVK | VGRGGGYADY gave 41 µM (3 of 3 replicates).

With GFTFDDYAMD | GISWNSGSIDYADSVK | VGRGGGYFDY the result was 190 nM (1 of 3 replicates). The variant GFTFDDYAKT | GISWNSGSIGYADSVK | VGRGGGAFDY gave 9.1 µM (2 of 3 replicates). The variant GFTFDDYAMA | GISWNSGSIGYADSVQ | CGRGGGYFDY gave nd (0 of 3 replicates). The variant GFTFDDYAMM | GISWHSGSIGYADSVD | VGRGGGYFDY gave 440 nM (3 of 3 replicates). For GFTFDDYRMK | GISWNSGSIGYADSVK | VGRGGGYFDY, the assay gave 1.0 mM (3 of 3 replicates). With WFTFDDYAMM | GISWNSGSIGYADSVK | EGRGGGYFDY the result was 850 µM (3 of 3 replicates). The variant GFTFDWYAMK | GISWNSGSIGYADSVK | VGRGGGYFAY showed 380 µM (2 of 3 replicates). For GFTFRDYAMC | GISWNSGSIGYADSVK | VGRGGGYFFY, the assay gave 58 µM (1 of 3 replicates).

With GFTFDNYAME | GISWNSGSIGYADSVK | VGRGGGCFDY the result was nd (0 of 3 replicates). The variant GFTFDDYAMQ | GISWNSGSIGYADSVK | VGRGGNYFDY showed 24 µM (2 of 3 replicates). For GFTFDDYAMC | GISWNSGSIGYADSIK | VGRGGGYFDF, the assay gave 50 µM (2 of 3 replicates). For GDTFDDYAMQ | GISWNSGSIGYADSVK | VGLGGGYFDY, the assay gave 90 µM (2 of 3 replicates). With GCTFDDYAMI | GISWNSGSIGYADSVK | VGRGGGYFDY the result was nd (0 of 3 replicates). With GFHFDDYAMQ | GISWRSGSIGYADSVK | VGRGGGYFDY the result was 340 µM (2 of 3 replicates). The variant GFTFDDYAMP | GISWNSGSIGYASSVK | VGRGGSYFDY gave 66 µM (1 of 3 replicates). The variant GFTFDDYAMW | GISWNSGSIGYAQSVK | VGRGGGYFDY showed 10 mM (1 of 3 replicates).

With GFTFDDYAMR | GISWNSGSIGYADNVK | VGRGGGYFDY the result was nd (0 of 3 replicates). The variant GFTFDDYAMW | GPSWNSGSIGYADSVS | VGRGGGYFDY showed 300 µM (2 of 3 replicates). The variant GFTFDDKAMC | GISWNSGSIGYADSVK | VGRGGGYFDS gave 100 µM (1 of 3 replicates). With GFTFDDYAML | GISWNSGRIGYADSVK | VGRGGGYFDY the result was nd (0 of 3 replicates). With GFLFDDYAMT | GISWNSGSIGYADSVK | VGRGTGYFDY the result was nd (0 of 3 replicates). For PFTFDDYAMI | GITWNSGSIGYADSVK | VGRGGGYFDY, the assay gave 230 µM (1 of 3 replicates). For GFTFDDYAMW | GISWNSGSIGYADSVQ | VGRGGGNFDY, the assay gave 31 µM (3 of 3 replicates). With GFTFDDYAMP | GISWNLGSIGYKDSVK | VGRGGGYFDY the result was 39 µM (1 of 3 replicates).

The variant GFTFDDYAMQ | GCRWNSGSIGYADSVK | VGRGGGYFDY gave 54 µM (2 of 3 replicates). For GFTLDDYAML | GISWNSGSIGYADSVK | VHRGGGYFDY, the assay gave nd (0 of 3 replicates). The variant GFTFDDYAMW | GISWNSGSIGYADSVK | VGRGGGYFDY showed 130 µM (2 of 3 replicates). The variant GFTFDDYAMY | GISWNSGSINYADWVK | VGRGGGYFDY gave 18 µM (2 of 3 replicates). The variant GFTFDDYAMM | GISKNSGSIGYADSVK | VGRGYGYFDY gave 670 µM (1 of 3 replicates).

The last 4 entries again:

Variant GFTLDDYAML | GISWNSGSIGYADSVK | VHRGGGYFDY showed nd (0 of 3 replicates).
Variant GFTFDDYAMW | GISWNSGSIGYADSVK | VGRGGGYFDY showed 130 µM (2 of 3 replicates).
Variant GFTFDDYAMY | GISWNSGSINYADWVK | VGRGGGYFDY showed 18 µM (2 of 3 replicates).
Variant GFTFDDYAMM | GISKNSGSIGYADSVK | VGRGYGYFDY showed 670 µM (1 of 3 replicates).

Background: pairings of library AAYL51 with three empty control strains gave a value in 21% of cases (median 34 µM, 5th percentile 1.8 µM). Values in that range, when seen in few replicates, are hard to tell from nonspecific mating.

Source: Engelhart et al. 2022 (doi:10.1038/s41597-022-01779-4), MIT Lincoln Laboratory and A-Alpha Bio; data file from the FLAb repository.